Biological target: EZH2 Y641F (Homo sapiens (Human), UniProt Q15910, Y641F)
Assay: In vitro methyltransferase activity test (LANCE Ultra)
Format: biochemical
Conditions: Recombinant PRC2 (EZH2-Y641F), 2.5 μM SAM/250 nM H3(1-50)K27me1, 3 hours, room temperature
Procedure: Recombinant PRC2 (EZH2-Y641F) was purchased from Active motif company, S-adenosyl-methionine (SAM) and Poly-L-lysine (PLL) were purchased from Sigma-Aldrich company, and H3(1-50)K27me1 peptide was purchased from Cisbio company. The detection system uses LANCEUltra system (Perkinelmer company). In the enzyme activity test, compounds to be tested were diluted by 8 gradient points in a ratio of 1:3, and added into a reaction plate, then 100 ng recombinase was added. And then a buffer [20 mM Tris pH8.5, 2 mM MgCl2, 0.01% Tween-20, 1 mM TCEP] containing 2.5 μM SAM/250 nM H3 (1-50)K27me1 premixtures was added, thus the enzyme reaction was started at room temperature. After reacting for 3 hours, a test solution premixed with PLL, detection antibody and Ulight was added, and reacted for 1h at room temperature, then the fluorescence value was read on a Tecan infinite pro. IC50 was calculated by fitting a four-factor model in the XLfit software.

Chains of the proteins cited; added tags and fusions are not shown.
UniProt Q15910, whole entry Y641F: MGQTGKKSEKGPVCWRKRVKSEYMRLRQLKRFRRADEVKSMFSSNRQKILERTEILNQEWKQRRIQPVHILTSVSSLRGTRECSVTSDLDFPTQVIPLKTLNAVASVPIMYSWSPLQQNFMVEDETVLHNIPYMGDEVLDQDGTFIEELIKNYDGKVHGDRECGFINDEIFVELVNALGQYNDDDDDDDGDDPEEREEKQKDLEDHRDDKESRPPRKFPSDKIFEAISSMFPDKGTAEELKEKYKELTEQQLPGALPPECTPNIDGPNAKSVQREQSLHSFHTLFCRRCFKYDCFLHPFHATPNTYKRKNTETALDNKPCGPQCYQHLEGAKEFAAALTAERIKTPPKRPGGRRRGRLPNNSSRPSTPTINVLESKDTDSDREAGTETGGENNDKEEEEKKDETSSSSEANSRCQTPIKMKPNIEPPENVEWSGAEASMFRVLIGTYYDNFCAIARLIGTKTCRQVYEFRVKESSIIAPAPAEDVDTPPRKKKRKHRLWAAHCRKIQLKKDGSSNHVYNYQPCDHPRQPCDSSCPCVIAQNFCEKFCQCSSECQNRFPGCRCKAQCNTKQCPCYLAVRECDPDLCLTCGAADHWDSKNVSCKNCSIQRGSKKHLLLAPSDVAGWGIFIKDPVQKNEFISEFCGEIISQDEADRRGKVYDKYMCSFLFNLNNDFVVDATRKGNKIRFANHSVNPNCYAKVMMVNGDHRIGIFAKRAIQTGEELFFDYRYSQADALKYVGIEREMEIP

IC50: 14 nM
Compound: C=CCC1(S(=O)(=O)n2cc(C)c3c(C(=O)NCc4c(C)cc(C)[nH]c4=O)cc(-c4ccc(N5CCN(C)CC5)nc4)cc32)CC1 [Compound G-2]

Reference: patent publication US10793549B2, “Sulfuryl-substituted benzoheterocyclic derivative, preparation method and medical use thereof” (SHANGHAI HAIYAN PHARMACEUTICAL TECHNOLOGY CO., LTD., priority 2016, dated 2020)
